One assay has as its target CXCR4-AT1R Heterodimer (Homo sapiens, UniProt P30556+P61073). Kind of assay: eBRET beta-arrestin 2 recruitment, cells expressing CXCR4/Rluc8 and barr2/Venus with HA-AT1R. As to conditions: 10^−7M SDF1α; HEK293FT cells co-expressing CXCR4/Rluc8, barr2/Venus and HA-AT1R; 37 C. (In general: Bioluminescence resonance energy transfer reports proximity on the nanometre scale.)

The target in a further assay is CCR5-AT1R Heterodimer (Homo sapiens, UniProt P30556+P51681). Kind of assay: eBRET beta-arrestin 2 recruitment, cells expressing CCR5/Rluc8 and barr2/Venus with HA-AT1R. Format: cell-based. As to conditions: 10^−7M MIP1β; HEK293FT cells co-expressing CCR5/Rluc8, barr2/Venus and HA-AT1R; 37 C.

As for stromal-cell derived factor-1α [SDF1α], the “transient eBRET signal peak (ligand-induced BRET ratio)” value on CXCR4-AT1R Heterodimer is on record as “about 0.01”.

B1: macrophage inflammatory protein 1beta (protein, UniProt P13236 24-92, looked up)
C-C motif chemokine 4: APMGSDPPTACCFSYTARKLPRNFVVDYYETSSLCSQPAVVFQTKRSKQVCADPSESWVQEYVYDLELN
notes: CC chemokine ligand 4, IG1 ligand of CCR5
For the molecule B1, the “eBRET signal peak (ligand-induced BRET ratio)” value with CCR5-AT1R Heterodimer is given as “about 0.08”.

Values taken from patent publication US20120100130A1, “Novel Receptor Hetero-Dimers/-Oligomers” (DIMERIX BIOSCIENCE PTY LTD., priority 2009, published 2012).
